Experimental data taken from patent US10562854B2, “Prolyl hydroxylase inhibitors” (Aerpio Therapeutics, Inc., priority 2009, dated 2020).

System: VEGF
Assay: VEGF ELISA Assay in HEK293 cells
Type: cell-based
Settings: Homo sapiens, head prints IC50, method calculates EC50 from % of DFO stimulation
Description: HEK293 cells are seeded in 96-well poly-lysine coated plates at 20,000 cells per well in DMEM (10% FBS, 1% NEAA, 0.1% glutamine). Following overnight incubation, the cells are washed with 100 μL of Opti-MEM (Gibco, Carlsbad, Calif.) to remove serum. Compound in DMSO is serially diluted (beginning with 100 μM) in Opti-MEM and added to the cells. The conditioned media is analyzed for VEGF with a Quantikine human VEGF immunoassay kit (R&D Systems, Minneapolis, Minn.). Optical density measurements at 450 nm are recorded using the Spectra Max 250 (Molecular Devices, Sunnyvale, Calif.). Data defined as % of DFO stimulation is used to calculate EC50 values with GraphPad Prism 4 software (San Diego, Calif.).

IC50 | Structure (SMILES)
20.6 µM | CC(NCc1ccn(Cc2ccccc2)c(=O)c1O)c1ccccc1 (centres unmarked) [Compound C14, 1-benzyl-3-hydroxy-4-[(1-phenylethylamino)methyl]pyridin-2(1H)-one]
42.5 µM | O=c1c(O)c(CNCCCn2ccnc2)ccn1Cc1ccccc1 [Compound C35, 1-benzyl-3-hydroxy-4-{[3-(1H-imidazol-1-yl)propylamino]methyl}pyridin-2(1H)-one]
